Reference: PMC5418926, “A Functional Role for the Monomethylated Gln-51 and Lys-53 Residues of the 49GGQTK53 Motif of eL42 from Human 80S Ribosomes” (The Open Biochemistry Journal, 2017)

Molecular target: human recombinant eL42-Δ(GGQTK) variant, His-tagged (human, UniProt P83881 1-106, Δ(GGQTK), residues 49-GGQTK-53 deleted)
Experiment: SPR; Biacore 3000; His-tagged eL42 species immobilised by amine coupling on a CM5 chip; eRF1 or EF-3 as analyte; 25°C, HBS-EP (10 mM HEPES pH 7.4, 150 mM NaCl, 3 mM EDTA, 0.005% P20), 5 µL/min; 1:1 Langmuir fit; mean of 3 experiments
Conditions: both partners purified

- koff: 0.000218 s⁻¹
- kon: 23 M⁻¹ s⁻¹
B1: elongation factor 3 (EF-3) from S. cerevisiae, His-tagged (natural protein)
chain: MSDSQQSIKVLEELFQKLSVATADNRHEIASEVASFLNGNIIEHDVPEHFFGELAKGIKDKKTAANAMQAVAHIANQSNLSPSVEPYIVQLVPAICTNAGNKDKEIQSVASETLISIVNAVNPVAIKALLPHLTNAIVETNKWQEKIAILAAISAMVDAAKDQVALRMPELIPVLSETMWDTKKEVKAAATAAMTKATETVDNKDIERFIPSLIQCIADPTEVPETVHLLGATTFVAEVTPATLSIMVPLLSRGLNERETGIKRKSAVIIDNMCKLVEDPQVIAPFLGKLLPGLKSNFATIADPEAREVTLRALKTLRRVGNVGEDDAIPEVSHAGDVSTTLQVVNELLKDETVAPRFKIVVEYIAAIGADLIDERIIDQQAWFTHITPYMTIFLHEKKAKDILDEFRKRAVDNIPVGPNFDDEEDEGEDLCNCEFSLAYGAKILLNKTQLRLKRARRYGICGPNGCGKSTLMRAIANGQVDGFPTQEECRTVYVEHDIDGTHSDTSVLDFVFESGVGTKEAIKDKLIEFGFTDEMIAMPISALSGGWKMKLALARAVLRNADILLLDEPTNHLDTVNVAWLVNYLNTCGITSITISHDSVFLDNVCEYIINYEGLKLRKYKGNFTEFVKKCPAAKAYEELSNTDLEFKFPEPGYLEGVKTKQKAIVKVTNMEFQYPGTSKPQITDINFQCSLSSRIAVIGPNGAGKSTLINVLTGELLPTSGEVYTHENCRIAYIKQHAFAHIESHLDKTPSEYIQWRFQTGEDRETMDRANRQINENDAEAMNKIFKIEGTPRRIAGIHSRRKFKNTYEYECSFLLGENIGMKSERWVPMMSVDNAWIPRGELVESHSKMVAEVDMKEALASGQFRPLTRKEIEEHCSMLGLDPEIVSHSRIRGLSGGQKVKLVLAAGTWQRPHLIVLDEPTNYLDRDSLGALSKALKEFEGGVIIITHSAEFTKNLTEEVWAVKDGRMTPSGHNWVSGQGAGPRIEKKEDEEDKFDAMGNKIAGGKKKKKLSSAELRKKKKERMKKKKELGDAYVSSDEEF
notes: S. cerevisiae elongation factor 3; The expression strain was a gift of Maria Mateyak; also called eEF-3; yeast EF-3; source: E. coli TKBL40 (BL21, His-tagged eEF-3 in pET11a), purified (His GraviTrap)
